These results are taken from patent publication US10117433B2 (priority 2011, dated 2018).

Marks after values point to notes of the source that are not given here.

Assay [1] has as its system sheep blowfly Lucilia cuprina. To be noted: unpublished data (V. Herzig and G. F. K); cited from earlier work.
In assay [2] the test system is S. littoralis. To be noted: exposed to transgenic tobacco expressing Hv1a; cited from earlier work.
In assay [3] the test system is lone star tick Amblyomma americanum. The settings on record: recombinant Hv1a; cited from earlier work.
Assay [4] relates to Heliothis armigera. The settings on record: exposed to transgenic tobacco expressing Hv1a; cited from earlier work.
Assay [5] relates to housefly Musca domestica. The settings on record: recombinant Hv1a; cited from earlier work.
Assay [6] has as its system M. brassicae larvae. Put plainly: Injection toxicity of Hv1a/GNA and Hv1a in fifth stadium M. brassicae larvae. To be noted: for Mortality (%): 72 h after injection. It counts as in vivo, Mamestra brassicae.

One may read the mortality as the percentage killed. In the case of ω-ACTX-Hv1a, the “LD50 per os compared with injection” value in assay [1] was 90 fold. The mortality is given as 100% in assay [2], 100% in assay [4] and 80% in assay [6] (injected with 92 μg toxin/g insect). Also, the LD50 was 716 pmol/g in assay [3] and 77 pmol/g in assay [5]. Further, the “Mortality (%)” value in assay [6] (dose 46 μg/insect (Hv1a equivalents)) was 20%; in assay [6] (dose 92 μg/insect (Hv1a equivalents)) it was 80* %; in assay [6] (dose 184 μg/insect (Hv1a equivalents)) it was 90* %.
